Test results taken from patent publication US20100304465.

Substance urokinase has a Km (urokinase activation, S-2251 coupled assay) (full-length plasminogen) of 1.2 µM, a kcat (urokinase activation, S-2251 coupled assay) (full-length plasminogen) of 0.0383 s⁻¹ and a kcat/Km (urokinase activation, S-2251 coupled assay) (full-length plasminogen) of 32000 M⁻¹ s⁻¹. For the same substance, the Km (urokinase activation, S-2251 coupled assay) (delta-plasminogen) was 30 µM, the “fold change of Km for urokinase activation against plasminogen” value (delta-plasminogen) was “approximately 30-fold higher than for plasminogen” and the kcat (urokinase activation, S-2251 coupled assay) (delta-plasminogen) was 1.33 s⁻¹. It also gave a kcat/Km (urokinase activation, S-2251 coupled assay) (delta-plasminogen) of 44500 M⁻¹ s⁻¹.
